Target: V. cholerae ApbE (Vibrio cholerae, UniProt A5F5Y3)
Assay: biochemical

**Q.** Which Kd does the source give for `Cc1cc2nc3c(=O)[nH]c(=O)nc-3n(C[C@H](O)[C@H](O)[C@H](O)COP(=O)(O)OP(=O)(O)OC[C@H]3O[C@@H](n4cnc5c(N)ncnc54)[C@H](O)[C@@H]3O)c2cc1C` [FAD, flavin adenine dinucleotide] here?
**A.** 2200 ± 1000 nM

— paper PMC5655446 (PLoS ONE, 2017)
